{
  "source": "patent US8518869B2",
  "about": "“Pharmaceutical combined preparation containing a therapeutic protein” (Austria Wirtschaftsservice Gesellschaft m.b.H., priority 2004, dated 2013)",
  "key": {"[1]": {"description": "It is understood that often arrangements must be made also for the storage of the preparation according to the invention so that said preparation will remain stable over an extended period of time. […] Hereby, it is possible to store the low-molecular thiol compound and the nitrosated protein of the preparation according to the invention both in combined and in separate form."}, "[2]": {"experiment": "in vitro NO-release measured with a porphyrinic microsensor", "conditions": "S—NO—HSA 30 μmol/L with reduced glutathione; n=6; FIG. 2a", "protocol": "The NO-concentration was measured in vitro."}, "[3]": {"tested_on": "collagen-induced platelet aggregation", "experiment": "collagen-induced platelet aggregation in human plasma rich in thrombocytes (aggregometer, method by Born)", "assay_type": "cell-based", "protocol": "The platelet aggregation was performed with human plasma rich in thrombocytes (TRP) in a Dual Kanal Chronolog Aggregometer basically according to the method by Born (1969). At the onset of each experiment, the exact dose of collagen was determined for the aggregation induced by collagen (˜1 μg collagen/mL TRP) (95-100% inhibition of the collagen-induced aggregation by 300 μmol/L of acetylsalicylic acid). […] After another minute, aggregation was induced with collagen. Control experiments with collagen alone were carried out after every second to third measurement. The results are illustrated as % aggregation relative to the aggregation induced by collagen (100%) (mean value±standard error). The final concentrations in the aggregation vessel are indicated in the images. In experiments with different thiol- and non-thiol-containing substances (N-acetyl-L-cysteine, ascorbic acid, DL-homocysteine, taurine, L-cysteine), pre-incubation was effected primarily with those substances, in analogy to the trials using reduced glutathione."}, "[4]": {"tested_on": "mean arterial pressure (MAP)", "experiment": "mean arterial pressure in the anaesthetized rabbit model", "assay_type": "in vivo", "conditions": "bolus infusion of 0.1 μmol/kg, with and without continuous infusion of reduced glutathione (2.2 μmol/kg/min), FIG. 1b", "protocol": "For the purpose of comparison, the effect of a nitrosated serum albumin preparation which was applied without reduced glutathione is shown. The rabbit was anaesthetized, whereby the anaesthesia was initiated with […] (5 mg/kg; bolus) and was maintained with a continuous infusion of […]) and 5 mg of xylasine (5 mg/kg/h), dissolved in physiological saline (5 mL/h), via the vena auricularis. After tracheotomy and intubation, the rabbits were attached to the respirator (Ventilator Harvard Apparatus-[…]) (tidal volume=0.0062×body weight (kg)^1.01, respiration rate=53.5×body weight (kg)^0.26). The mean arterial pressure (MAP) was measured in the arteria femoralis by means of a pressure transducer (amplifier unit-TAM-A and Isotec pressure transducer; Hugo Sachs Elektronik). The results are illustrated in FIGS. 1a-f."}},
  "data": [
    {"substance": "albumin: protein derived from plasma or blood, non-nitrosated protein component", "values": [
      {"measurement": "pH-value at which stability in solution is greatest", "setting": "[1]", "value": "6 and 7"}
    ]},
    {"substance": "S-nitroso human serum albumin [S—NO—HSA]", "values": [
      {"measurement": "NO-release, effect of added reduced glutathione", "setting": "[2]", "value": "concentration-dependent potentiation"},
      {"measurement": "inhibition of the collagen-induced aggregation", "setting": "[3]; 2-4 μmol/L, without reduced glutathione", "value": 20, "unit": "%"},
      {"measurement": "inhibition of the collagen-induced platelet aggregation, effect of added reduced glutathione", "setting": "[3]; S—NO—HSA 2-4 μmol/L with reduced glutathione, n=6, FIG. 3a", "value": "dose-dependent potentiation"},
      {"measurement": "mean arterial pressure", "setting": "[4]", "value": "decrease in mean arterial pressure"}
    ]}
  ]
}
